This note sets out measurements from paper PMC10393035.

Chains of the proteins cited; added tags and fusions are not shown.
BCLXL (human (endogenous in NAN12)), Q07817, UniProt Q07817, whole entry: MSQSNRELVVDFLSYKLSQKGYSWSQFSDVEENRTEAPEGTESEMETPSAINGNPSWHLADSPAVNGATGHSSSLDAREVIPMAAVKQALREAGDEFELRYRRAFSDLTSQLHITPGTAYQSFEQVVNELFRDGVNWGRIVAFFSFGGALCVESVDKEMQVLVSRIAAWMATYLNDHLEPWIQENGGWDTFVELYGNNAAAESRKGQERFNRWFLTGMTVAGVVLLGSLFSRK

In this assay the target is BCLXL (human (endogenous in NAN12)), Q07817. The assay can be described thus: co-IP; BCLXL immunoprecipitated from NAN12 cell lysate (1% Digitonin containing buffer); unbound proteins (OUT) quantified and compared to total lysates (IN). The conditions noted are these: remark: other sources report otherwise.

B1: BAK, Q16611 1-211 (natural protein)
chain: MASGQGPGPPRQECGEPALPSASEEQVAQDTEEVFRSYVFYRHQQEQEAEGVAAPADPEMVTLPLQPSSTMGQVGRQLAIIGDDINRRYDSEFQTMLQHLQPTAENAYEYFTKIATSLFESGINWGRVVALLGFGYRLALHVYQHGLTGFLGQVTRFVVDFMLHHCIARWIAQRGGWVAALNLGNGPILNVLVVLGVVLLGQFVVRRFFKS
B1 showed a percent sequestered by BCLXL of 50%.
